MC4R ag barr – agonists of human melanocortin 4 receptor (MC4R) beta-arrestin. P32245. U2OS MC4R beta-arrestin complementation, luminescence; percent of melanotan II response, DMSO zero. activation, % at 8.9 µM. 360,000 tested, 0.98% active;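 active means activation above a per-plate cutoff, the mean activation of sample wells on that plate plus 3 SD, cut at about 8% in these data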
MC4R antag cAMP – antagonists of human melanocortin 4 receptor (MC4R) | MC4R-expressing cells, MTII-stimulated cAMP, LANCE TR-FRET | inhibition, % at 6.5 µM | P32245 | AID 540295 | 360,000 tested, 0.48% active;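 active means inhibition above its plate's cutoff, the mean of tested wells on that plate plus 3 SD, cut at about 29% in these data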;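 further: 0% = Melanotan II alone and 100% = Melanotan II plus saturating MCL0020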
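Material: human MC4R-expressing U2OS cells. Probe or stimulus: Melanotan II challenge. Dosing: 6.5 µM single dose. Times: 30-min compound, 1-h challenge, 1-h detection, room temperature. Technique: TR-FRET with Eu-cAMP and labeled anti-cAMP, 671 nm. Replication: singlicate.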
ARFGAP1 inh – inhibits rat ARF GTPase activating protein 1; 360,000 tested, 0.26% active; Q62848; inhibition, % at 16.5 µM; Arfgap1-stimulated ARF1 GTP hydrolysis, GDP FP detection;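 active means inhibition above a per-plate limit, mean inhibition of low control wells plus 3 SD, cut at about 25% in these data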;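 further: 0% = DMSO wells with enzyme and 100% = wells lacking Arfgap1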
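system = rat Arfgap1 catalytic domain, aa 1-136 | technique = FP, GDP Alexa 633 tracer displaced from anti-GDP antibody, 620/688 nm | compound = one concentration, 16.5 µM, DMSO 1.26% | medium = HEPES-based buffer, pH 7.5 | timing = compound-enzyme preincubation 20 min, reaction 120 min, detection 60 min, 25 °C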
ASAP1 inh – blocks human ASAP1-stimulated Arf1 GTP hydrolysis | Q9ULH1 | 360,000 tested, 0.19% active | GDP FP detection | inhibition, % at 16.5 µM; in the data active means inhibition above about 25%;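 further: 0% = vehicle with enzyme and substrate and 100% = no enzyme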
UUG fidelity – alters start codon recognition fidelity in yeast; S. cerevisiae UUG-firefly luciferase reporter, luminescence/redox ratio; activity score, % at 18.7 µM; actives 0.13% (n = 350,000); AID 602363;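 active = replicate mean at a twofold rise or more, about +100% in these data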;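 also: firefly luciferase made from a UUG start codon reports start codon fidelity; reporter light over untreated wells divided by growth signal over untreated wells; some hits fall short of that in this replicate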
NRP1-CendR mod – NRP-1/CendR interaction modulation; O14786; FAM-RPARPAR peptide binding to NRP-1, fluorescence polarization; inhibition, % at 25 µM; 360,000 tested, 0.85% active; AID 602438;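 active means inhibition or corrected inhibition above about 18%, plus a signal ratio from 0.5 to 1.5, limit read from the data, passing the limit was not always enough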
cAMP nonselect – U2OS forskolin cAMP inhibition counter-screen; shares compounds with MC4R antag cAMP; parental U2OS, LANCE TR-FRET; inhibition, % at 6.5 µM; 1,600 tested, 26% active;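 active means mean inhibition over triplicates above the low-control well mean plus 3 SD, set per campaign, cut at about 13% in these data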;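 further: signal is single emission at 671 nm which falls as cellular cAMP rises; 0% = forskolin-stimulated wells and 100% = buffer without forskolin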
MC4R antag conf – human MC4R cAMP antagonism confirmation. shares compounds with MC4R antag cAMP. inhibition, % at 6.5 µM. MC4R-expressing cells, MTII-stimulated cAMP, TR-FRET. 1,600 tested, 27% active; in the data active means inhibition above about 29%;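 further: 0% = agonist stimulated wells alone and 100% = agonist stimulated wells plus saturating reference antagonist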
Active calls of the source: *; · = not tested or not shown. An excerpt weighted towards active compounds, which were near 2.3% of everything screened.

1: O=C(COC(=O)CNC(=O)c1cccc([N+](=O)[O-])c1)Nc1ccccc1OC(F)F
2: CSc1ccc(OC2CCCCC2NS(=O)(=O)c2ccc(Cl)cc2)cc1 (centres undefined)
3: C[C@H](CO)N1C[C@H](C)[C@@H](CN(C)C)OCCCC[C@H](C)Oc2ccc(NC(=O)CCC(F)(F)F)cc2C1=O
4: CC1CCCC(NC(=O)CSc2ccc(F)cc2)C1C (centres undefined)
5: CC1CCCC(NC(=O)COC(=O)CSc2ccc3ccccc3c2)C1C (centres undefined)

| Screen / compound no. | 1 | 2 | 3 | 4 | 5 |
| --- | --- | --- | --- | --- | --- |
| MC4R ag barr | 1.7 | 1.5 | · | 1.1 | -1.5 |
| MC4R antag cAMP | 13.3 | 30.7* | · | 32.2* | 7.3 |
| ARFGAP1 inh | 5.5 | -6.1 | · | -2.8 | 4.0 |
| ASAP1 inh | -5.8 | -2.6 | · | -4.6 | 11.2 |
| UUG fidelity | · | · | -11.6 | 18.8 | · |
| NRP1-CendR mod | 0.3 | 1.3 | · | 8.2 | -4.1 |
| cAMP nonselect | · | 0.2 | · | 4.0 | · |
| MC4R antag conf | · | 15.7 | · | 6.1 | · |

6: CC(C)(C)c1ccc(-n2nc(C(N)=O)c(O)cc2=O)cc1
7: CC(C)(C)c1ccc(-n2nc(C#N)c(Cl)cc2=O)cc1
8: Cc1cc(C)n(-c2nc(N(c3ccccc3)c3ccccc3)nc(-n3nc(C)cc3C)n2)n1
9: C[C@@H]1CCCCO[C@H](CN(C)S(=O)(=O)c2ccccc2)[C@@H](C)CN([C@@H](C)CO)C(=O)c2cc(NS(C)(=O)=O)ccc2O1
10: CC1(C)CC[C@]2(C(=O)O[C@@H]3O[C@H](CO)[C@@H](O)[C@H](O)[C@H]3O)CC[C@]3(C)C(=CCC4[C@@]5(C)CC[C@H](O[C@@H]6O[C@H](C(=O)O)[C@@H](O[C@H]7OC[C@@H](O)[C@@H](O)[C@@H]7O)[C@H](O)[C@H]6O)C(C)(C)C5CC[C@]43C)[C@@H]2C1 (some centres undefined)

| Screen / compound no. | 6 | 7 | 8 | 9 | 10 |
| --- | --- | --- | --- | --- | --- |
| MC4R ag barr | 1.8 | -2.7 | 4.3 | · | -3.2 |
| MC4R antag cAMP | -7.6 | 94.1* | 61.8* | · | 4.0 |
| ARFGAP1 inh | -0.9 | 5.7 | · | · | -1.3 |
| ASAP1 inh | -2.4 | -7.1 | · | · | 8.4 |
| UUG fidelity | -3.9 | · | · | 3.6 | 26.2 |
| NRP1-CendR mod | 4.5 | 5.5 | -1.5 | · | -16.5 |
| cAMP nonselect | · | 40.9* | 2.9 | · | · |
| MC4R antag conf | · | 89.5* | -7.0 | · | · |

Whole records from above. Screens in order: MC4R ag barr | MC4R antag cAMP | ARFGAP1 inh | ASAP1 inh | UUG fidelity | NRP1-CendR mod | cAMP nonselect | MC4R antag conf
CC(C)(C)c1ccc(-n2nc(C#N)c(Cl)cc2=O)cc1 is entered as -2.7 | 94.1* | 5.7 | -7.1 | · | 5.5 | 40.9* | 89.5*
Cc1cc(C)n(-c2nc(N(c3ccccc3)c3ccccc3)nc(-n3nc(C)cc3C)n2)n1 is entered as 4.3 | 61.8* | · | · | · | -1.5 | 2.9 | -7.0
CC1(C)CC[C@]2(C(=O)O[C@@H]3O[C@H](CO)[C@@H](O)[C@H](O)[C@H]3O)CC[C@]3(C)C(=CCC4[C@@]5(C)CC[C@H](O[C@@H]6O[C@H](C(=O)O)[C@@H](O[C@H]7OC[C@@H](O)[C@@H](O)[C@@H]7O)[C@H](O)[C@H]6O)C(C)(C)C5CC[C@]43C)[C@@H]2C1 (some centres undefined) is entered as -3.2 | 4.0 | -1.3 | 8.4 | 26.2 | -16.5 | · | ·

Next section.
11: CC1(C)CC[C@]2(C(=O)O)CC[C@]3(C)C(=CC[C@@H]4[C@@]5(C)CC[C@H](O[C@@H]6O[C@H](C(=O)O)[C@@H](O)[C@H](O[C@@H]7OC[C@H](O)[C@H](O)[C@H]7O)[C@H]6O)C(C)(C)[C@@H]5CC[C@]43C)[C@@H]2C1
12: CCCC#Cc1ccc2c(c1)O[C@H](CN(C)C(=O)c1ccccn1)[C@H](C)CN([C@@H](C)CO)S2(=O)=O
13: CCN(CC)S(=O)(=O)c1cc(C(=O)Nc2nncs2)c(Cl)cc1Cl
14: CCN(CC)S(=O)(=O)c1ccc(Cl)c(C(=O)Nc2nncs2)c1
15: C[C@@H]1CN([C@H](C)CO)C(=O)c2cc(NC(=O)CCCN(C)C)ccc2O[C@@H](C)CCCCO[C@H]1CN(C)Cc1ccc2c(c1)OCO2

| Screen / compound no. | 11 | 12 | 13 | 14 | 15 |
| --- | --- | --- | --- | --- | --- |
| MC4R ag barr | -2.2 | · | -2.2 | -0.9 | · |
| MC4R antag cAMP | 110.6* | · | 42.8* | 9.4 | · |
| ARFGAP1 inh | -15.9 | · | -3.4 | 5.5 | · |
| ASAP1 inh | 7.2 | · | 5.9 | -3.4 | · |
| UUG fidelity | 6.4 | 2.2 | -6.9 | 0.3 | -6.0 |
| NRP1-CendR mod | -103.6 | · | -3.2 | 2.6 | · |
| cAMP nonselect | 35.5* | · | 16.9* | · | · |
| MC4R antag conf | 21.9 | · | 43.1* | · | · |

16: CN(C)S(=O)(=O)c1cccc(C(=O)NC2CCSc3ccccc32)c1 (centres undefined)
17: CS(=O)(=O)Cc1cccc(C(=O)NC2CCSc3ccccc32)c1 (centres undefined)
18: COc1ccc(CC2(CO)CCN(Cc3cnn(C)c3C)CC2)cc1
19: Cc1ccc(/C=C/C(=O)N2CCN(S(=O)(=O)c3ccc(C)c(C)c3)CC2)o1
20: C[C@H](O)C#Cc1cnc2c(c1)C(=O)N([C@H](C)CO)C[C@H](C)[C@@H](CN(C)C(=O)c1ccncc1)O2

| Screen / compound no. | 16 | 17 | 18 | 19 | 20 |
| --- | --- | --- | --- | --- | --- |
| MC4R ag barr | -2.5 | 0.8 | -0.8 | -1.2 | · |
| MC4R antag cAMP | 1.8 | 32.5* | 29.7* | 37.6* | · |
| ARFGAP1 inh | 5.6 | 0.8 | -1.7 | 10.7 | · |
| ASAP1 inh | 1.8 | 5.0 | 0.2 | -7.5 | · |
| UUG fidelity | 10.8 | 9.5 | · | -29.1 | 7.4 |
| NRP1-CendR mod | 18.6 | 2.3 | 8.6 | -5.6 | · |
| cAMP nonselect | · | 4.6 | -2.9 | -2.4 | · |
| MC4R antag conf | · | -1.5 | -14.3 | 6.8 | · |

21: COC(=O)c1ccc(CN2CCc3ccc(NC(=O)c4ccncc4)cc3C2)cc1
22: CCC(Sc1nc2ccsc2c(=O)n1Cc1ccc(C(=O)O)cc1)C(=O)Nc1ccc(C)c(Cl)c1 (centres undefined)
23: CCC(Sc1nc2ccsc2c(=O)n1Cc1ccc(C(=O)O)cc1)C(=O)Nc1cc(Cl)ccc1C (centres undefined)
24: Cc1ccc(/C=C/C(=O)c2ccc([N+](=O)[O-])o2)cc1
25: O=C(/C=C/c1ccc(Cl)cc1)c1ccc([N+](=O)[O-])o1

| Screen / compound no. | 21 | 22 | 23 | 24 | 25 |
| --- | --- | --- | --- | --- | --- |
| MC4R ag barr | 0.3 | -3.4 | -1.7 | · | -2.3 |
| MC4R antag cAMP | 29.0* | 21.1 | 36.7* | · | 40.4* |
| ARFGAP1 inh | -9.2 | 1.9 | 13.6 | 3.2 | -14.8 |
| ASAP1 inh | -15.9 | -7.7 | 11.4 | -5.4 | -11.3 |
| UUG fidelity | -10.0 | -9.1 | -5.0 | · | -17.4 |
| NRP1-CendR mod | 0.2 | 8.4 | -2.8 | · | 4.8 |
| cAMP nonselect | 3.2 | · | 0.7 | · | 8.5 |
| MC4R antag conf | -1.2 | · | 2.5 | · | 27.2 |

26: Cc1cc(C)nc(SCC(=O)N2CCCCC2)n1
27: Cc1cc2nnc(SCC(=O)N3CCCCCC3)n2c(N)n1
28: C[C@@H]1CN([C@H](C)CO)C(=O)Cc2cc(NC(=O)Nc3ccc(C(F)(F)F)cc3)ccc2O[C@H]1CN(C)C(=O)Nc1cccc2ccccc12
29: O=C(OCc1ccccc1F)c1cnc(Cl)c(Cl)c1
30: O=C(OCc1ccc([N+](=O)[O-])cc1)c1cnc(Cl)c(Cl)c1

| Screen / compound no. | 26 | 27 | 28 | 29 | 30 |
| --- | --- | --- | --- | --- | --- |
| MC4R ag barr | -0.3 | -1.5 | · | -2.1 | -1.8 |
| MC4R antag cAMP | -0.5 | 29.3* | · | 39.6* | 11.7 |
| ARFGAP1 inh | -10.9 | -1.4 | · | -1.1 | 10.9 |
| ASAP1 inh | -1.6 | -2.8 | · | -1.5 | 10.0 |
| UUG fidelity | -18.6 | -15.1 | -6.6 | -12.9 | 3.4 |
| NRP1-CendR mod | 10.1 | 2.4 | · | 13.4 | 4.4 |
| cAMP nonselect | · | 0.1 | · | 25.1* | · |
| MC4R antag conf | · | -11.7 | · | 38.1* | · |

31: O=C(OCc1c(F)cccc1Cl)c1cnc(Cl)c(Cl)c1
32: Cc1cc(C(=O)OCC(=O)c2ccc(Br)s2)no1
33: CC(C)C#Cc1ccc2c(c1)O[C@@H](CN(C)C)[C@@H](C)CN([C@@H](C)CO)S2(=O)=O
34: Cn1ccsc1=NC(=O)c1ccc(S(C)(=O)=O)c([N+](=O)[O-])c1
35: Cn1ccsc1=NC(=O)c1ccc(Cl)c([N+](=O)[O-])c1
36: CCOC(=O)Cc1cc(=O)n2[nH]cc(-c3ccc(Cl)cc3)c2n1

| Screen / compound no. | 31 | 32 | 33 | 34 | 35 | 36 |
| --- | --- | --- | --- | --- | --- | --- |
| MC4R ag barr | -1.0 | -1.1 | · | -3.7 | -0.1 | -1.2 |
| MC4R antag cAMP | 34.5* | 37.0* | · | 33.0* | 35.1* | 30.5* |
| ARFGAP1 inh | 7.2 | · | · | -10.4 | -8.5 | 3.2 |
| ASAP1 inh | 0.2 | · | · | -19.3 | -1.6 | 2.8 |
| UUG fidelity | -17.9 | -11.1 | -2.2 | -12.5 | -19.6 | -3.5 |
| NRP1-CendR mod | 9.4 | -11.4 | · | 19.1 | -2.3 | 5.3 |
| cAMP nonselect | 16.8* | 5.1 | · | 6.5 | 4.1 | 1.1 |
| MC4R antag conf | 43.3* | 9.4 | · | 31.4* | -0.8 | 2.5 |

Compound activity as filed in PubChem BioAssay.
